Among the targets are A*0202 (Homo sapiens, UniProt P04439, D140Y/D185E/D98H/E176V/E277Q/G131W/G231S/I119L/I121R/I166T/I218V/L180W/L300P/L318F/N151K/N90K/P208A/P217A/Q67R/Q86G/Q94H/R138H/R169H/T345S); HLA-B*0702 (Homo sapiens, UniProt P01889); A*6802 (Homo sapiens, UniProt P04439, A269V/D140Y/D185E/E176V/E277Q/E87N/F33Y/G231S/I121R/I166T/I218V/L180W/L300P/L318F/N151K/P208A/P217A/Q86R/R138H/R169H/S129P/T345S/V36M); HLA-A*0201 (Homo sapiens, UniProt P04439, D140Y/D185E/D98H/E176V/E277Q/G131W/G231S/I119V/I121R/I166T/I218V/L300P/L318F/N151K/N90K/P208A/P217A/Q86G/Q94H/R138H/R169H/T345S).

By UniProt entry, the sequences of proteins in these tests, tags left out. Where a name states a change or a piece, a line headed by the entry shows the natural chain unless it says otherwise. Residues count along the entry.
UniProt P01889, 25-362: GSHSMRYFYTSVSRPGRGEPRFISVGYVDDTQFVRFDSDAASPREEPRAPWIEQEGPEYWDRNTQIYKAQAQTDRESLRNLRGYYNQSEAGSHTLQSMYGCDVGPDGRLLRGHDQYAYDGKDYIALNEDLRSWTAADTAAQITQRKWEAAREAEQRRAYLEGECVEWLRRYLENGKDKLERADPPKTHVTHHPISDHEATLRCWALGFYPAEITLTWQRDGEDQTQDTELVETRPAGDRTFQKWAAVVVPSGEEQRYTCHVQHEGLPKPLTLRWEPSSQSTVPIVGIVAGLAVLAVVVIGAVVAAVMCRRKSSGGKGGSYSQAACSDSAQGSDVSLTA

What all share (assay): biochemical
In another assay the target is A*0206 (Homo sapiens, UniProt P04439, D140Y/D185E/D98H/E176V/E277Q/F33Y/G131W/G231S/I119V/I121R/I166T/I218V/L300P/L318F/N151K/N90K/P208A/P217A/Q86G/Q94H/R138H/R169H/T345S). The following applies: A*0206 binding affinity, Table XXII.
The target in another assay is A*0203 (Homo sapiens, UniProt P04439, A173T/D140Y/D185E/D98H/E277Q/G131W/G231S/I119V/I121R/I166T/I218V/L180W/L300P/L318F/N151K/N90K/P208A/P217A/Q86G/Q94H/R138H/R169H/T345S). The following applies: A*0203 binding affinity, Table XXII.

Each structure is given as a SMILES string. Read-outs that look alike come from different tables or passages of the source.

The IC50 is the concentration that gives 50% inhibition.

In turn, `CC(C)C[C@H](NC(=O)[C@H](C)N)C(=O)N1CCC[C@H]1C(=O)N1CCC[C@H]1C(=O)N[C@H](C(=O)N[C@@H](C)C(=O)N1CCC[C@H]1C(=O)N[C@H](C(=O)O)C(C)C)C(C)C` [p53.69L2V8] showed an IC50 against A*0202 of 7170 nM.

For the molecule `CC[C@H](C)[C@H](NC(=O)[C@@H]1CCCN1C(=O)[C@H](C)NC(=O)[C@@H]1CCCN1C(=O)[C@H](C)NC(=O)[C@@H](NC(=O)[C@@H]1CCCN1C(=O)[C@@H]1CCCN1C(=O)[C@@H](N)Cc1ccccc1)C(C)C)C(=O)O` [p53.70.F119], at HLA-B*0702, half-maximal inhibition (IC50) required 275 nM.

With `CC(C)C[C@H](NC(=O)[C@@H](N)Cc1ccccc1)C(=O)N[C@@H](Cc1c[nH]cn1)C(=O)N[C@@H](CO)C(=O)NCC(=O)N[C@H](C(=O)N[C@@H](C)C(=O)N[C@@H](CCCCN)C(=O)N[C@@H](CO)C(=O)N[C@H](C(=O)O)C(C)C)[C@@H](C)O` [p53.113], the figures for the IC50 on A*6802 and on A*0206 (A2 supermotif peptides) were more than 10000 nM and 4620 nM, respectively.

Consider `CC[C@H](NC(=O)[C@H](Cc1ccccc1)NC(=O)[C@H](CCSC)NC(=O)[C@H](CCCCN)NC(=O)[C@H](CC(N)=O)NC(=O)[C@H](CC(C)C)NC(=O)[C@H](C)N)C(=O)N[C@@H](CCC(N)=O)C(=O)N[C@H](C(=O)O)C(C)C` [p53.129B7V9], for which the IC50 against A*6802 was more than 10000 nM; on A*0206 (A2 supermotif analogs), 49 nM; at A*0203 (A2 supermotif analogs) it was 23 nM.

Take `CSCC[C@H](NC(=O)[C@H](Cc1c[nH]cn1)NC(=O)[C@H](CCC(N)=O)NC(=O)[C@H](CO)NC(=O)[C@H](CCC(N)=O)NC(=O)[C@@H](N)CCCCN)C(=O)N[C@H](C(=O)N[C@@H](CCC(=O)O)C(=O)N[C@H](C(=O)O)C(C)C)[C@@H](C)O` [p53.164]: the IC50 is more than 10000 nM at A*6802; 500 nM on HLA-A*0201 (A*0201 binding affinity, Table XXII, A2 supermotif peptides); 170 nM on A*0203 (A2 supermotif peptides).

`CC[C@H](C)[C@H](NC(=O)[C@H](CC(C)C)NC(=O)[C@H](Cc1c[nH]cn1)NC(=O)[C@H](CCC(N)=O)NC(=O)[C@@H]1CCCN1C(=O)[C@@H]1CCCN1C(=O)[C@H](C)NC(=O)[C@H](CC(C)C)NC(=O)CN)C(=O)N[C@@H](CCCNC(=N)N)C(=O)N[C@H](C(=O)O)C(C)C` [p53.187]: the half-maximal inhibitory concentration (IC50) was 39 nM on A*0202, more than 10000 nM on A*6802 and 79 nM at HLA-A*0201.

For the molecule `CC(C)[C@H](N)C(=O)N[C@H](C(=O)N[C@H](C(=O)N1CCC[C@H]1C(=O)N[C@@H](Cc1ccc(O)cc1)C(=O)N[C@@H](CCC(=O)O)C(=O)N1CCC[C@H]1C(=O)N1CCC[C@H]1C(=O)N[C@@H](CCC(=O)O)C(=O)N[C@H](C(=O)O)C(C)C)C(C)C)C(C)C` [p53.216], the IC50 against A*6802 is more than 10000 nM; at HLA-A*0201 (A*0201 binding affinity, Table XXII, A2 supermotif analogs), 617 nM.

On to `CC[C@H](C)[C@H](N)C(=O)N[C@@H](CC(C)C)C(=O)N[C@@H](CC(C)C)C(=O)N[C@@H](CCC(=O)O)C(=O)N[C@@H](CC(=O)O)C(=O)N[C@@H](CO)C(=O)N[C@@H](CO)C(=O)NCC(=O)N[C@@H](CC(N)=O)C(=O)N[C@@H](CC(C)C)C(=O)N[C@H](C(=O)O)C(C)C` [p53.255L2V11], for which the IC50 against A*6802 was more than 10000 nM; at A*0203 (A2 supermotif analogs), 71 nM.

On A*0203 (A2 supermotif peptides), `CC(C)C[C@H](NC(=O)[C@H](CC(C)C)NC(=O)[C@@H](N)CC(N)=O)C(=O)NCC(=O)N[C@@H](CCCNC(=N)N)C(=O)N[C@@H](CC(N)=O)C(=O)N[C@@H](CO)C(=O)N[C@@H](Cc1ccccc1)C(=O)N[C@@H](CCC(=O)O)C(=O)N[C@H](C(=O)O)C(C)C` [p53.263] displayed an IC50 of 2500 nM.

Values taken from US20040048790A1, “Inducing cellular immune responses to p53 using peptide and nucleic acid compositions” (priority 1999, published 2004).
